Data on three compounds can be found in patent publication US8399026B2, “Peptides isolated from spider venom, and uses thereof” (priority 2009, dated 2013).

Protein sequences, listed by entry. Tags and fused reporters are not part of them. Lines headed by an entry give the natural chain unless they say otherwise; changes in a name come on top.
UniProt P08104, whole entry: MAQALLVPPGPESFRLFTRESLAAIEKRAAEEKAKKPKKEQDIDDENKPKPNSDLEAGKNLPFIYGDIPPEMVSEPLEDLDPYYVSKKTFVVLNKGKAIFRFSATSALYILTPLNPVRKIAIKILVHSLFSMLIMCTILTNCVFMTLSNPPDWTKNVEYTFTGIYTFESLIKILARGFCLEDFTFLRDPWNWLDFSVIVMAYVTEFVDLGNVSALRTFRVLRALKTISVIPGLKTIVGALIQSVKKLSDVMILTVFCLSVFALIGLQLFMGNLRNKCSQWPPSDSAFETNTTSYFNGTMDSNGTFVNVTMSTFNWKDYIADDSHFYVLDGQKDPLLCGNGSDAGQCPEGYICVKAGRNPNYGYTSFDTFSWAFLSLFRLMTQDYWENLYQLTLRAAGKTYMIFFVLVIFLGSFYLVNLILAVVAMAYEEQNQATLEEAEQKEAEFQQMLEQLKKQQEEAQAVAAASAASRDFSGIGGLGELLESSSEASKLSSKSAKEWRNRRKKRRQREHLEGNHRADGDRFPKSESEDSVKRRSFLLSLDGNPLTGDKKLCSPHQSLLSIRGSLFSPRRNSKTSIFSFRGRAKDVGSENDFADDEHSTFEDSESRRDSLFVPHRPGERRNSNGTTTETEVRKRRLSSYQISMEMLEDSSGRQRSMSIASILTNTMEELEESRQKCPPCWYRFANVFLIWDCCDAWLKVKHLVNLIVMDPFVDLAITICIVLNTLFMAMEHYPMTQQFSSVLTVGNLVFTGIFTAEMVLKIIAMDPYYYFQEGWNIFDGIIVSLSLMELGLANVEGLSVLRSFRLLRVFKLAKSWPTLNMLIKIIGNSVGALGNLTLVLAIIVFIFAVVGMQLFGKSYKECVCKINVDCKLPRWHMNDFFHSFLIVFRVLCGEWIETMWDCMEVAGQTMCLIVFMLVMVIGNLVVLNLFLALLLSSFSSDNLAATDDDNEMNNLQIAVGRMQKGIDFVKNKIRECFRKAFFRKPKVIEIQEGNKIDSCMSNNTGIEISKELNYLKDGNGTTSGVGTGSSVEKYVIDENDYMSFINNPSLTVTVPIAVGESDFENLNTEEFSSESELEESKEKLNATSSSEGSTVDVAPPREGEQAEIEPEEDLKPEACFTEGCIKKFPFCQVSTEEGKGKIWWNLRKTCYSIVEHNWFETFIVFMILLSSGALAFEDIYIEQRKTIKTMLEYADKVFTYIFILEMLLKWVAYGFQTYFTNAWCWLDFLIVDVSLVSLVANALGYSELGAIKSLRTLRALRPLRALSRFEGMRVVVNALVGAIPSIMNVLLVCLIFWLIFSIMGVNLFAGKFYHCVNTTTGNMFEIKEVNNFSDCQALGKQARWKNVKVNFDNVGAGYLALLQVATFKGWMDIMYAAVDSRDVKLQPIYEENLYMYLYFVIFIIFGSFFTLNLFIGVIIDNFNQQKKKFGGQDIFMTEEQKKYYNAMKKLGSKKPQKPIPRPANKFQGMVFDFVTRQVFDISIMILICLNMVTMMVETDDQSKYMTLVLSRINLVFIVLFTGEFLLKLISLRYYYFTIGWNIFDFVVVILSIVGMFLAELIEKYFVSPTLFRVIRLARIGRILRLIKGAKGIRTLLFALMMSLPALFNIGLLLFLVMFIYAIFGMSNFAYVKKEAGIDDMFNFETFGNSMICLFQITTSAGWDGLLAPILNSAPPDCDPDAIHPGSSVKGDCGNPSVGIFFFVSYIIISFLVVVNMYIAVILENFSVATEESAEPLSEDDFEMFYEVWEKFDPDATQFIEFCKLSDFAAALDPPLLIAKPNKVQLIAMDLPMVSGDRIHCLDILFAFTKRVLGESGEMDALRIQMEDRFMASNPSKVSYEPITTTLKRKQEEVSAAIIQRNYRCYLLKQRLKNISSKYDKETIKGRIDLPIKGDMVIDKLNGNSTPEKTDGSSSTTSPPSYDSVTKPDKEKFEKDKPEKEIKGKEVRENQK
UniProt Q62968, whole entry: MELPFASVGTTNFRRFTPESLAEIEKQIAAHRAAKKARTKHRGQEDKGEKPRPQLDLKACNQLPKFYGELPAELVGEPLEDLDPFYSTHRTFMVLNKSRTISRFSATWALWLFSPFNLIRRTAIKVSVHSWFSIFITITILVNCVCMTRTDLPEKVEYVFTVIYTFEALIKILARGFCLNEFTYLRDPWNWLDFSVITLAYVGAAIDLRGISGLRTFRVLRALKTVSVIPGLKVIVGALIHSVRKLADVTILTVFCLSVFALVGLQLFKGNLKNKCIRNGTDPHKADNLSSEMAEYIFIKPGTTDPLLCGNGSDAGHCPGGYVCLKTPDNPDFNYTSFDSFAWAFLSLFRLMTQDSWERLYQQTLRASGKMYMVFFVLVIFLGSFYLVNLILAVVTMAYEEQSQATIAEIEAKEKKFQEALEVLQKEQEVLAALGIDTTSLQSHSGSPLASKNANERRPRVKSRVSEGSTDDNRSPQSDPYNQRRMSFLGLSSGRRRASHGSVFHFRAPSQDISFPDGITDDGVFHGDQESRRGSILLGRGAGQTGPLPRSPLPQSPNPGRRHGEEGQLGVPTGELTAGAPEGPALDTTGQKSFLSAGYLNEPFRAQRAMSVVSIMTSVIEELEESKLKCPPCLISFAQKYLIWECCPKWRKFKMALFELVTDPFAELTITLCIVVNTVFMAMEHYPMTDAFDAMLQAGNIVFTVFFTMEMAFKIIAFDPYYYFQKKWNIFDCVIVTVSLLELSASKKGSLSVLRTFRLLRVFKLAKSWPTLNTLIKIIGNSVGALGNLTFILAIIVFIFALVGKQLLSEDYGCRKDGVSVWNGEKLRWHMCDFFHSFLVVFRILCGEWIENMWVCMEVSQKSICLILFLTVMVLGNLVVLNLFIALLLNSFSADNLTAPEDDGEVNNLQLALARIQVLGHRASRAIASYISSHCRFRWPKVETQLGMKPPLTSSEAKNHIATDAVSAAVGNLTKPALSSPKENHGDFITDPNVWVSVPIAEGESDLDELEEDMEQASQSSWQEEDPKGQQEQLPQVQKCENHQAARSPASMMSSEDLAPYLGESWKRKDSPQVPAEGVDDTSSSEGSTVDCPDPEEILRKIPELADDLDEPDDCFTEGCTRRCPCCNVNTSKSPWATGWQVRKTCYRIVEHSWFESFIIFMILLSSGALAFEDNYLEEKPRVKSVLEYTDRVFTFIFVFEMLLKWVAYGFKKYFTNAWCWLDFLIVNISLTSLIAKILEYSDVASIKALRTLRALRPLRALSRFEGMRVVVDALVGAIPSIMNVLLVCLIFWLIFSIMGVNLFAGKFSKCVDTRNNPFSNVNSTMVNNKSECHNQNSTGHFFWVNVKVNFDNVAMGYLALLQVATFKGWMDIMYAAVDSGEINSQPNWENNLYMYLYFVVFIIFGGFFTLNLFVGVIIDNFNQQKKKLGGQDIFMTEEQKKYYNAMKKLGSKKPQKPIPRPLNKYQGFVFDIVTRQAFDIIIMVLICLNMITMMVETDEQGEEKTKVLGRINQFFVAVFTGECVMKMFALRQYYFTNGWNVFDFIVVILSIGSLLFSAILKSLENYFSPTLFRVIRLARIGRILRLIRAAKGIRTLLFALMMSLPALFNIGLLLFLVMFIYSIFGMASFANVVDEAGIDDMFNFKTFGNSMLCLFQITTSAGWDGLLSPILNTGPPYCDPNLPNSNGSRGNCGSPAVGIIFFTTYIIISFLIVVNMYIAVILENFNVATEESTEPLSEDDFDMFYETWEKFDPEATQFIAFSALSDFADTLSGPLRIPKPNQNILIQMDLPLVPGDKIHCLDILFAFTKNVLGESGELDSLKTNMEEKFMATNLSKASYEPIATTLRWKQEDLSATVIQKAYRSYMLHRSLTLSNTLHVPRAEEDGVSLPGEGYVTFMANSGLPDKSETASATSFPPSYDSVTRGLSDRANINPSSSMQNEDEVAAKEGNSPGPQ
UniProt Q12809: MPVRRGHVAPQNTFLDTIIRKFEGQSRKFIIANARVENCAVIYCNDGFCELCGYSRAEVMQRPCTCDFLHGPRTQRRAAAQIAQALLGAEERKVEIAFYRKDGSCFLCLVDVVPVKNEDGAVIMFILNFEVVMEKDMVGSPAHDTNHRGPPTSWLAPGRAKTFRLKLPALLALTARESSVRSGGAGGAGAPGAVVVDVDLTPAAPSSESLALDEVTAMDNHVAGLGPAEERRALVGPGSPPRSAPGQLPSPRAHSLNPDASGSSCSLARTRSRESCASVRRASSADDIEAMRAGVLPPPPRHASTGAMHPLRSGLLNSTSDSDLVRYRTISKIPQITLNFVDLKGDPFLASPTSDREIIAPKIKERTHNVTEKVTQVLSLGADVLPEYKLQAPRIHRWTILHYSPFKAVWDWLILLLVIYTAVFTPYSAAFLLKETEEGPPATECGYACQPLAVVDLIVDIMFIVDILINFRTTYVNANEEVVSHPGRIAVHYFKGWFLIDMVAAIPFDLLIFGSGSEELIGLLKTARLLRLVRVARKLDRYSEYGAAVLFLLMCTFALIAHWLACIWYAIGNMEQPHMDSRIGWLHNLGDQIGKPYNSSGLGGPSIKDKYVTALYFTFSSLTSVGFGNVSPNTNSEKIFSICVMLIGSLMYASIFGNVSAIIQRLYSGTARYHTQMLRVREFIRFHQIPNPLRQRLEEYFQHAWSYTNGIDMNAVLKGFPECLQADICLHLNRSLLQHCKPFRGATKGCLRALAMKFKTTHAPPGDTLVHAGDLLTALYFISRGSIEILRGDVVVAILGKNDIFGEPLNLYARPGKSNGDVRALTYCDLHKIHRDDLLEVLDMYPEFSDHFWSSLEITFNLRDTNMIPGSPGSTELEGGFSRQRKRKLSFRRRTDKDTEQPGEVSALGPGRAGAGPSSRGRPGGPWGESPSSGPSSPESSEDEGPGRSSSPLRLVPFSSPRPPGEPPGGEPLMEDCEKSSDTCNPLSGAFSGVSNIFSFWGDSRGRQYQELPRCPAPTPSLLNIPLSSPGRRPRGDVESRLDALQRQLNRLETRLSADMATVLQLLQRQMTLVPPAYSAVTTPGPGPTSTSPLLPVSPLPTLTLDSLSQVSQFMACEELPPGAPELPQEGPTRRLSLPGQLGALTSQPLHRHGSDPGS

The target of one series is T1, rNaV1.3 channels (Rattus norvegicus, UniProt P08104).
T1 construct: expressed in transfected cells; host or cells: HEK-293
Description: cell-based. The settings on record: for dose response curves of native and synthetic peptides for inhibiting rNaV1.3 channels: HEK cells, each data point average of 3-5 experiments; for IC50: text of Example 3, read-out: apparent IC50, NaV1.3 channels.

The subject of the next series is rat DRG neurons. The class given is cell-based. Conditions: for % inhibition (mean ± S.D) of AP in rDRG & [concentration (μM)]: concentration in brackets in the cell: A 5.00, B 0.70, C 5.00, D 0.75, E 0.83, F 1.00 μM; for inhibition of DRG action potentials: dose higher than the IC50 for NaV1.3: A 5 μM, B 0.7 μM, C 5 μM, D 0.75 μM, E 0.83 μM, F 1 μM.
The target in the next series is T2, rNaV1.8 channels (Rattus norvegicus, UniProt Q62968).
T2 construct: expressed in transfected cells; host or cells: ND7-23
Description: Blocking of NaV1.8 channel currents, patch clamp, voltage ramp, ND7-23 cells. The class given is cell-based. The settings on record: text of Example 3; read-out: apparent IC50, NaV1.8 channels. (In general: The patch-clamp technique gives a direct electrical read-out from membranes.)

A further series has as its target hKV11.1 (hERG) channels (Homo sapiens, UniProt Q12809). Conditions: for % inhibition (mean ± S.D) of hERG at concentration × 10 IC50 for Nav1.3: each peptide at 10 × its IC50 for Nav1.3; for effect on hERG channel currents: highest dose examined. (The hERG channel carries a current that helps repolarise heart muscle cells.)
The subject of series [1] is mouse embryonic stem cells derived cardiomyocytes (mES-CM). The settings on record: for effect on the frequency or the amplitude of action potentials in cardiomyocytes: A 3.8 μM, C 5 μM, D 0.75 μM, E 0.83 μM; for % inhibition (mean ± S.D) of AP frequency in mES-CM & [concentration (μM)]: concentration in brackets in the cell: A 3.75, B 9.00, C 5.00, D 0.75, E 0.83, F 1.00 μM.

Another series relates to spinal-ligated rats. The series is classed as in vivo, rat. The settings on record: for ipsilateral paw withdrawal threshold compared to vehicle, chronic: Day 21, all time points; for ipsilateral paw withdrawal threshold compared to vehicle, acute: Day 17, data collapsed across 1 and 3 hour time points; for ipsilateral paw withdrawal threshold (PWT), summary: acute or 5-day administration, 1 and 3 hours following administration; for Contralateral paw withdrawal threshold prior to drug administration / Ipsilateral paw withdrawal threshold prior to drug administration: mean ± SEM. The method, then: This study aimed to evaluate the analgesic indications of compound C using the Chung model of neuropathic pain in rats. This study was performed at PsychoGenics, Inc., headquartered at 765 Old Saw Mill River Road, Tarrytown, N.Y.
Male Sprague Dawley rats (100-125 g) from Harlan (Indianapolis, Ind.) were used in the study. Upon receipt, rats were assigned unique identification numbers and were group housed with 3 rats per cage in polycarbonate cages with micro-isolator filter tops. All rats were examined, handled, and weighed prior to initiation of the study to assure adequate health and suitability. During the course of the study, 12/12 light/dark cycles were maintained, with lights on at 7:00 am EST. The room temperature was maintained between 20 and 23° C. with a relative humidity maintained around 50%. Chow and water were provided ad libitum for the duration of the study.
All compounds were administered at a dose volume of 5 ml/kg, q.d. for 5 days (Days 17-21 post-surgery). Reference compound: Gabapentin (100 mg/kg; TRC, Lot No. 1-SWM-154-1) was dissolved in 0.5% carboxy-methylcellulose (CMC) in water and administered orally. Test Compound: Compound C (0.25, 0.625, and 1.25 mg/kg; Lot n/a) was dissolved in distilled H2O to a stock concentration (20×), divided into single-use aliquots, and frozen. On each test day, one aliquot was thawed and diluted 20-fold with PBS (pH 7.2), and used as stock for formulation of test doses. Compound C was administered subcutaneously.
Under general anesthesia with continuous inhalation of isoflurane, surgery was performed with aseptic procedures in surgery unit. The skin at the area of the lower lumber and sacral level of the rat was shaved and disinfected with betadine and alcohol. Sterile ophthalmic ointment was used to lubricate the eyes. Animals were observed continuously for the level of anesthesia, testing for the animal's reflex response to tail or paw pinch and closely monitoring the animal's breathing. A heating pad was used to maintain body temperature at 37° C. while the animals recovered from anesthesia. A left longitudinal incision at the level next to the vertebral column was made and the left paraspinal muscles were separated. The transverse process of L6 was removed and nearby connective tissue cleaned to expose L5 and L6 spinal nerves. After the nerves were isolated and clearly visualized, 4-0 silk threads were used to ligate the left L5. The muscles were sutured with 4-0 silk threads and the wound closed by staples. All rats received an analgesic (buprenorphine, 0.05 mg/kg, s.c.) immediately before and 6 hours after surgery. Each rat was monitored until awake and moving freely around the recovery chamber. Animals were then single-housed for the duration of the study. Rats were allowed to recover for 2 weeks after surgery prior to testing.
Withdrawal from a mechanical stimulus was measured by applying von Frey (VF) filaments of ascending bending force to the plantar surface of the hind paws (ipsilateral and contralateral). A positive response was defined as withdrawal from the von Frey filament. Confirmation of the paw withdrawal threshold (PWT) is tested by assessing the response to the filament above and below the withdrawal response.
Rats were brought to the experimental room and allowed to habituate in the room for one hour prior to testing, and acclimated to the observation chambers for 15 minutes prior to taking PWT measurements.
Pre-operative baseline testing: Prior to surgery, all rats were tested using the VF test.
Post-operative baseline testing: On Day 14 following surgery, baseline responses were taken from all surgically-operated rats, and an ipsilateral PWT greater than 4.5 g was used as an exclusion criterion (13 rats excluded). Rats were subsequently balanced and assigned to treatment groups (n=10 per group) based on their post-op PWT values. […]

Where [2] appears, read: baseline of group assigned to 0.25 mg/kg.
The mark [3] stands for this setting: baseline of group assigned to 0.625 mg/kg.
The mark [4] stands for this setting: baseline of group assigned to 1.25 mg/kg.

One may read the IC50 as the concentration needed to halve the response being measured.

Where two headings read alike, the source gives them in different places.

Take `CSCC[C@@H]1NC(=O)CNC(=O)[C@H](CC(C)C)NC(=O)[C@@H](NC(=O)[C@H](CC(=O)O)NC(=O)[C@@H](N)CC(=O)O)CSSC[C@@H]2NC(=O)[C@@H]3CSSC[C@@H](C(=O)N[C@@H](CCCCN)C(=O)N[C@@H](Cc4ccc(O)cc4)C(=O)N[C@H](C(=O)N[C@@H](CC(C)C)C(N)=O)C(C)C)NC(=O)[C@H](Cc4c[nH]c5ccccc45)NC(=O)[C@H](CCCCN)NC(=O)[C@H](CC(=O)O)NC(=O)[C@H](CCCCN)NC(=O)[C@H](CCCNC(=N)N)NC(=O)[C@H](CC(N)=O)NC(=O)[C@H](CSSC[C@H](NC(=O)[C@H](CO)NC(=O)[C@H](CO)NC(=O)[C@H](Cc4ccccc4)NC1=O)C(=O)N[C@@H](CC(=O)O)C(=O)N1CCC[C@H]1C(=O)N[C@@H](CC(=O)O)C(=O)N[C@@H](CC(N)=O)C(=O)N[C@@H](CC(=O)O)C(=O)N[C@@H](CCCCN)C(=O)N3)NC(=O)[C@H](CCCCN)NC(=O)[C@H](CCCNC(=N)N)NC(=O)CNC(=O)[C@H](CCC(=O)O)NC2=O` [Peptide A]: on rNaV1.3 channels, the “potency range in inhibiting the target channels” value is “micromolar range”; the “dose response curves of native and synthetic peptides for inhibiting rNaV1.3 channels” value was “overlap completely”; the IC50 was found to be 1750 nM. In the series with rat DRG neurons, the “% inhibition (mean ± S.D) of AP in rDRG & [concentration (μM)]” value is 17 ± 10 [5.00] % and the “inhibition of DRG action potentials” value is on record as “inhibited DRG action potentials”. The IC50 on rNaV1.8 channels stood at 2500 nM. Also, at hKV11.1 (hERG) channels, the “% inhibition (mean ± S.D) of hERG at concentration × 10 IC50 for Nav1.3” value (“% inhibition (mean ± S.D) of hERG” below) is 2 ± 2%. Besides, the “effect on hERG channel currents” value on hKV11.1 (hERG) channels (ten times the IC50 for NaV1.3) is recorded as “no effect”. Besides, the “effect on the frequency or the amplitude of action potentials in cardiomyocytes” value (“effect on the frequency or the amplitude” for short) in series [1] (B 9 μM, F 1 μM) is “no”. The “% inhibition (mean ± S.D) of AP frequency in mES-CM & [concentration (μM)]” value (shortened to “% inhibition … in mES-CM & [concentration (μM)]”) in series [1] is 1 ± 11 [3.75] %.
As to `CSCC[C@@H]1NC(=O)[C@H](CC(=O)O)NC(=O)CNC(=O)[C@@H]2CSSC[C@H](NC(=O)[C@@H](N)Cc3ccc(O)cc3)C(=O)N[C@@H](CCC(N)=O)C(=O)N[C@@H](CCC(=O)O)C(=O)N[C@@H](Cc3ccccc3)C(=O)N[C@@H](CC(C)C)C(=O)N[C@@H](Cc3c[nH]c4ccccc34)C(=O)N[C@@H]([C@@H](C)O)C(=O)N[C@H]3CSSC[C@H](NC(=O)[C@H](C(C)C)NC1=O)C(=O)N[C@@H](CCCNC(=N)N)C(=O)N[C@@H](CC(C)C)C(=O)N[C@@H](Cc1c[nH]c4ccccc14)C(=O)N[C@H](C(=O)N[C@@H](CCCCN)C(=O)N[C@@H](CCCCN)C(=O)N[C@@H](CCCNC(=N)N)C(=O)N[C@@H](CC(C)C)C(N)=O)CSSC[C@H](NC(=O)[C@H](CCCCN)NC(=O)[C@H](CCCNC(=N)N)NC(=O)[C@H](CCC(=O)O)NC(=O)[C@H](CCC(=O)O)NC(=O)[C@H](CC(=O)O)NC3=O)C(=O)N2` [Peptide B], at rNaV1.3 channels, the “potency range in inhibiting the target channels” value is recorded as “sub-nanomolar range”; the “dose response curves of native and synthetic peptides for inhibiting rNaV1.3 channels” value is reported as “overlap completely”; the IC50 was 230 nM. For the same compound, in the series on rat DRG neurons, the “% inhibition (mean ± S.D) of AP in rDRG & [concentration (μM)]” value was 28 ± 25 [0.70] % and the “inhibition of DRG action potentials” value was “inhibited DRG action potentials”. The “% inhibition (mean ± S.D) of hERG” value on hKV11.1 (hERG) channels came out at 25 ± 7.5%. Further, the “effect on hERG channel currents” value on hKV11.1 (hERG) channels (ten times the IC50 for NaV1.3) is listed as “minor inhibitory action”. Besides, the “inhibition of hERG” value at hKV11.1 (hERG) channels (only at the highest dose examined, ten times the IC50 for NaV1.3) is reported as 25%. Also, in series [1] (B 9 μM, F 1 μM), the “effect on the frequency or the amplitude” value is recorded as “affected action potential frequency” and the “inhibition of action potentials in cardiomyocytes” value is given as “about 20%”. Moreover, the “% inhibition … in mES-CM & [concentration (μM)]” value in series [1] was 35 ± 36 [9.00] %.
In the case of `CC(C)C[C@@H]1NC(=O)[C@@H](NC(=O)[C@H](C)N)CSSC[C@@H]2NC(=O)[C@@H]3CSSC[C@@H](C(=O)N[C@@H](CCCCN)C(=O)N[C@@H](Cc4ccc(O)cc4)C(=O)NCC(=O)N[C@@H](Cc4c[nH]c5ccccc45)C(=O)O)NC(=O)[C@H](Cc4c[nH]c5ccccc45)NC(=O)[C@H](CCCCN)NC(=O)[C@H](Cc4c[nH]cn4)NC(=O)[C@H](CCCCN)NC(=O)[C@H](CCC(N)=O)NC(=O)[C@H](CO)NC(=O)[C@H](CSSC[C@H](NC(=O)[C@H](CCCCN)NC(=O)[C@H](CCC(=O)O)NC(=O)CNC(=O)[C@H](Cc4ccccc4)NC(=O)CNC1=O)C(=O)N[C@@H](CC(N)=O)C(=O)N1CCC[C@H]1C(=O)N[C@@H](CO)C(=O)N[C@@H](CC(N)=O)C(=O)N[C@@H](CC(=O)O)C(=O)N[C@@H](CCCCN)C(=O)N3)NC(=O)[C@H](C(C)C)NC(=O)[C@H](CC(C)C)NC(=O)[C@H](CO)NC(=O)[C@H](CO)NC(=O)[C@H](CO)NC(=O)[C@H](CCCCN)NC2=O` [Peptide C], the “potency range in inhibiting the target channels” value on rNaV1.3 channels is on record as “micromolar range”. Further, on rNaV1.3 channels, the “dose response curves of native and synthetic peptides for inhibiting rNaV1.3 channels” value is reported as “overlap completely”. Further, the half-maximal inhibitory concentration (IC50) on rNaV1.3 channels turned out to be 1200 nM. For the same compound, the “ipsilateral paw withdrawal threshold compared to vehicle, chronic” value in the series with spinal-ligated rats (0.625 mg/kg subcutaneously q.d. 5 days) and in the series with spinal-ligated rats (1.25 mg/kg subcutaneously q.d. 5 days) was “significantly increased” each time. The “ipsilateral paw withdrawal threshold compared to vehicle, acute” value with spinal-ligated rats (0.625 mg/kg subcutaneously) and in the series on spinal-ligated rats (1.25 mg/kg subcutaneously) was “significantly increased” in each case. Further, the “ipsilateral paw withdrawal threshold (PWT), summary” value in the series on spinal-ligated rats (0.625 mg/kg) and in the series on spinal-ligated rats (1.25 mg/kg) was “significantly increased” each time. The “Contralateral paw withdrawal threshold prior to drug administration” value turned out to be 38.50 ± 5.95 with spinal-ligated rats (setting [2]), 48.70 ± 5.83 in the series on spinal-ligated rats (setting [3]) and 39.60 ± 5.55 with spinal-ligated rats (setting [4]). Further, the “Ipsilateral paw withdrawal threshold prior to drug administration” value with spinal-ligated rats (setting [2]) was 2.94 ± 0.29; in the series with spinal-ligated rats (setting [3]), 2.94 ± 0.29; with spinal-ligated rats (setting [4]) it was 2.99 ± 0.26. Further, in the series with spinal-ligated rats (during pretreatment or testing, gabapentin 100 mg/kg orally, compound C 0.25, 0.625, 1.25 mg/kg subcutaneously), the “signs of sedation or toxicity” value is listed as “not observed”. Also, the “% inhibition (mean ± S.D) of AP in rDRG & [concentration (μM)]” value in the series on rat DRG neurons is 38 ± 14 [5.00] %. Also, the “inhibition of DRG action potentials” value in the series with rat DRG neurons was “inhibited DRG action potentials”. Further, the “% inhibition (mean ± S.D) of hERG” value at hKV11.1 (hERG) channels stood at 2 ± 14%. For the same compound, the “effect on hERG channel currents” value on hKV11.1 (hERG) channels (ten times the IC50 for NaV1.3) is “no effect”. Moreover, in series [1] (B 9 μM, F 1 μM), the “effect on the frequency or the amplitude” value was “no”. The “% inhibition … in mES-CM & [concentration (μM)]” value in series [1] was 16 ± 8 [5.00] %.
